The text below walks through data of PubChem BioAssay AID1259313 (Sanford-Burnham Center for Chemical Genomics, 2017).

Only a part is listed here, and it is no random draw. Calls of active or inactive are those of the source.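 How the source made its calls: active means melting temperature shift of at least 10% of the positive control shift, at one fixed dose; inactive means the rest.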

In the experiment the test system is Glutamate receptor ionotropic, NMDA 3A (GRIN3A) ligand-binding domain. The experiment in a line: NR3A LBD thermal stabilization by compounds – biophysical, differential scanning fluorimetry, uHTS, primary screen (AID 1259313). Conditions: at 25 µM, active compounds read high, 0% = protein alone, 100% = glycine-bound protein.
On to `Nc1cc(N)c2nonc2c1[N+](=O)[O-]`, for which the Tm shift relative to glycine control was inactive: 3.84%.
To `Oc1ccccc1CNc1ccccn1` belongs inactive: 0.7%; to `O=C(NC(Sc1ccncn1)C(Cl)(Cl)Cl)c1ccccc1` (stereo unspecified), inactive: -2.89%.
As for `NC(=O)c1cc([N+](=O)[O-])cc([N+](=O)[O-])c1N`, the figure is inactive: 1.26%; as for `Cc1ccc(N/C(=N/P(=O)(N2CCOCC2)N2CCOCC2)N2CCOCC2)cc1`, inactive: -0.75%.
As for `COc1ccccc1OP(=O)(Nc1ccc(C)cn1)Oc1ccccc1OC`, the figure is inactive: 0.16%; as for `Cc1ccc(OP(=O)(Nc2nccs2)Oc2ccc(C)cc2)cc1`, inactive: 1.49%.
Take `Clc1ccc(Cl)c(NC2=NCC(CBr)S2)c1` (stereo unspecified): the Tm shift relative to glycine control is inactive: -1.34%.
To `CN1CCCC(OC(=O)C(c2ccccc2)c2ccccc2)C1` (stereo unspecified) belongs inactive: -0.59%; to `Nc1ccc([As](=O)(O)c2ccc(N)cc2)cc1`, inactive: -0.95%.
As to `C[N+]1=C2C=CC=CC=C2SC12C([N+](=O)[O-])=CC([N+](=O)[O-])=C[C-]2[N+](=O)[O-]` (stereo unspecified), the Tm shift relative to glycine control was inactive: 2.42%.
As for `CCN(/C(=N/P(=O)(N1CCOCC1)N1CCOCC1)N1CCOCC1)c1ccc(OC)cc1`, the Tm shift relative to glycine control is inactive: 0.36%.
Consider `CC(C)=N/N=C(\N)N[N+](=O)[O-]`, for which the Tm shift relative to glycine control is inactive: 0.16%.
To `CN(C)C(=O)OCCc1n(C)cc[n+]1C` belongs inactive: -11.3%.
In the case of `CC1CCN(C(=O)Oc2c(Cl)cc(Cl)c3cccnc23)CC1`, the Tm shift relative to glycine control is inactive: 2.46%.
As for `COc1ccc(C2=NCC(CBr)S2)cc1` (stereo unspecified), the figure is inactive: 0.15%.
Turning to `O=[N+]([O-])c1cccc2n[nH]nc12`, the Tm shift relative to glycine control is inactive: -2.23%.
In the case of `CC(=O)N1C2C3N(C(C)=O)C1C1N(C(C)=O)C(C(N1C(C)=O)N3C(C)=O)N2C(C)=O`, the Tm shift relative to glycine control is inactive: 0.55%.
As for `Cc1ccc(NP(=O)(Oc2ccccc2)Oc2ccccc2)nc1`, the figure is inactive: -0.39%.
As to `CCc1nc2c(n1)c1c(non1O)c1c2no[n+]1[O-]`, the Tm shift relative to glycine control is inactive: 0.29%.
In the case of `O=[N+]([O-])c1cc([N+](=O)[O-])c(CCNc2ccccc2)c([N+](=O)[O-])c1`, the Tm shift relative to glycine control is inactive: -3.43%.
As for `CC(C)(C)C(=O)NC(Sc1ccncn1)C(Cl)(Cl)Cl` (stereo unspecified), the Tm shift relative to glycine control was inactive: -3.55%.
As to `O=[N+]([O-])c1ncn(CCn2ncnc2[N+](=O)[O-])n1`, the Tm shift relative to glycine control is inactive: -0.67%.
For `O=[N+]([O-])c1cccc(NC2=NCC(CBr)S2)c1` (stereo unspecified), the Tm shift relative to glycine control is inactive: 2.25%.
Turning to `COC(=O)C1(C)COP(=O)(Nc2ccccc2)OC1` (stereo unspecified), the Tm shift relative to glycine control was inactive: 2.74%.
As for `O=C(O)CNc1ccc([As](=O)(O)O)cc1`, the figure is inactive: -2.02%; as for `O=P1(N(CCCl)CCCl)OCCCS1` (stereo unspecified), inactive: 1.22%; as for `O=C(Nc1cc([As](=O)(O)O)ccc1O)c1ccccc1`, inactive: 5.66%.
To `CCOC(=O)Nc1cccc([As](=O)(O)O)c1` belongs inactive: -2.23%; to `O=[N+]([O-])c1ccc(Nc2ccc(Oc3ccc([N+](=O)[O-])cc3[N+](=O)[O-])cc2)c([N+](=O)[O-])c1`, inactive: 1.8%.
As for `O=P(Nc1ccccn1)(c1cccc2ccccc12)c1cccc2ccccc12`, the figure is inactive: -1.75%; as for `Cc1cc(SC(NC=O)C(Cl)(Cl)Cl)ncn1` (stereo unspecified), inactive: 0.19%.
`CC1CCNP(=O)(N(CCCl)CCCl)O1` (stereo unspecified): the Tm shift relative to glycine control is inactive: 2.42%.
Consider `CCOC(=O)Nc1ccc([As](=O)(O)O)c(O)c1`, for which the Tm shift relative to glycine control is inactive: -1.17%.
As for `CCCCOc1ccc(C(=O)NCC2(N3CCCCC3)CCCCC2)cc1OC`, the figure is inactive: -0.43%.
As for `Cc1cc(SC(NC(=O)c2ccccc2)C(Cl)(Cl)Cl)nc(C(C)C)n1` (stereo unspecified), the figure is inactive: 3.36%; as for `CCOC(=O)c1ccc(NC(=O)C(C)(CCl)SC)cc1` (stereo unspecified), inactive: 2.37%; as for `O=C(OC1CN2CCC1CC2)c1cccc([N+](=O)[O-])c1` (stereo unspecified), inactive: 2.08%.
In the case of `CCC(C)N(CC(C)C)C(=S)SC(NC(C)=O)C(Cl)(Cl)Cl` (stereo unspecified), the Tm shift relative to glycine control was inactive: -1.38%.
Regarding `COP1(=S)c2c(C)nn(CCC#N)c2N=C(c2ccc(F)cc2)N1C` (stereo unspecified), the Tm shift relative to glycine control is inactive: -1.03%.
As to `O=C(COc1ccccc1)OC1CN2CCC1CC2` (stereo unspecified), the Tm shift relative to glycine control is inactive: 0.69%.
In the case of `O=C(Nc1ccncc1[N+](=O)[O-])c1ccc([N+](=O)[O-])cc1[N+](=O)[O-]`, the Tm shift relative to glycine control is inactive: -0.19%.
Take `COc1ccc(N/C(=N/P(=O)(N2CCOCC2)N2CCOCC2)N2CCOCC2)cc1`: the Tm shift relative to glycine control was inactive: 0.46%.
As for `O=[N+]([O-])c1cc(Oc2ccc([N+](=O)[O-])cc2C(F)(F)F)cc([N+](=O)[O-])c1`, the figure is inactive: -6.81%; as for `O=C(OC1CN2CCC1CC2)C12CC3CC(CC(C3)C1)C2` (stereo unspecified), inactive: 0.69%.
Take `Cc1cc(=O)[nH]c(N[N+](=O)[O-])n1`: the Tm shift relative to glycine control is inactive: 0.51%.
With `Cc1c2c(nc3ccccc13)SC(C(Cl)Cl)C2` (stereo unspecified), the Tm shift relative to glycine control was inactive: 4.19%.
To `COc1ccc2nc(NP(=O)(c3ccccc3)c3ccccc3)sc2c1` belongs inactive: -1.45%; to `COc1cc(I)ccc1[As](=O)(O)O`, inactive: -0.16%; to `O=P1(N(CCCl)CCCl)Nc2ccccc2N1`, inactive: 1.22%.
As for `O=P1(N(CCCl)CCCl)OCCCN1CCCl` (stereo unspecified), the figure is inactive: 1.02%.
